Reference: US11745001B2, “Therapeutic bandage” (University of Connecticut, priority 2020, dated 2023)

Assay: kinetics of drug release from microneedles, epifluorescence microscopy with two fluorescent dyes
Description: FIG. 4A illustrates a microneedle base 44 showing the hollow channel 50. FIG. 4B illustrates the microneedle base 44 coupled to the rapid-dissolving tips 40, which include tattoo ink. In one embodiment, the therapeutic bandage 10 may be producing the microneedles 26 and then coupling the microneedles 26 to the bandage matrix 30. In some embodiments, the microneedles 26 may be integrally formed with a portion of the bandage matrix 30. The microneedles are produced by forming the base 44, with the microchannel 50, and loading the base […] with the second immunomodulatory compound. The tip 40 is then produced and loaded with the first immunomodulatory compound. The tip 40 is then coupled to the base 44 to seal the microchannel […]. To test the mechanical strength of the microneedles 26, the tips 40 were loaded with insoluble tattoo ink (FIG. 4B). The microneedles 26 were then applied to cultured human skin explants using a 1 Newton application force. […] FIG. 4E illustrates a longitudinal section of explanted human skin showing spacing of microneedle deposition in the dermal layer. The kinetics of drug release were then measured using epifluorescence microscopy and two fluorescent dyes.

With BODIPY-vancomycin as the substance, how does the “time in which the tips dissolved and delivered the dye into the dermal layer of skin” value (dye loaded in rapid-dissolving tips 40, explanted human skin, FIG. 5 at A) read?
The value was ≤ 30 min.

What about the “detectability of burst release from the tip” value (one hour after bandage application) of the same substance?
Its value is “no longer detectable”.
